Starred links: 1 amine or outer side, 2 acyl side, 3 side chain; linkers in the order of their positions; H or OH if unused. Non-standard residues stand in square brackets, D forms with d. Residues, ends and D or L forms follow the SMILES beside them. X2 = NCCCC[C@H](N)CN([C@@H](Cc1ccc(O)cc1)C(=O)[*:2])[*:1]
Columns and labels:
[1] = target: T1, AT4 receptor (Bos taurus, UniProt F1N1Q8); assay: 125I-AIV binding and competition, solubilized bovine adrenal cortical receptor; settings: competition of 125I-AIV binding
T1 sequence (F1N1Q8 1-1022): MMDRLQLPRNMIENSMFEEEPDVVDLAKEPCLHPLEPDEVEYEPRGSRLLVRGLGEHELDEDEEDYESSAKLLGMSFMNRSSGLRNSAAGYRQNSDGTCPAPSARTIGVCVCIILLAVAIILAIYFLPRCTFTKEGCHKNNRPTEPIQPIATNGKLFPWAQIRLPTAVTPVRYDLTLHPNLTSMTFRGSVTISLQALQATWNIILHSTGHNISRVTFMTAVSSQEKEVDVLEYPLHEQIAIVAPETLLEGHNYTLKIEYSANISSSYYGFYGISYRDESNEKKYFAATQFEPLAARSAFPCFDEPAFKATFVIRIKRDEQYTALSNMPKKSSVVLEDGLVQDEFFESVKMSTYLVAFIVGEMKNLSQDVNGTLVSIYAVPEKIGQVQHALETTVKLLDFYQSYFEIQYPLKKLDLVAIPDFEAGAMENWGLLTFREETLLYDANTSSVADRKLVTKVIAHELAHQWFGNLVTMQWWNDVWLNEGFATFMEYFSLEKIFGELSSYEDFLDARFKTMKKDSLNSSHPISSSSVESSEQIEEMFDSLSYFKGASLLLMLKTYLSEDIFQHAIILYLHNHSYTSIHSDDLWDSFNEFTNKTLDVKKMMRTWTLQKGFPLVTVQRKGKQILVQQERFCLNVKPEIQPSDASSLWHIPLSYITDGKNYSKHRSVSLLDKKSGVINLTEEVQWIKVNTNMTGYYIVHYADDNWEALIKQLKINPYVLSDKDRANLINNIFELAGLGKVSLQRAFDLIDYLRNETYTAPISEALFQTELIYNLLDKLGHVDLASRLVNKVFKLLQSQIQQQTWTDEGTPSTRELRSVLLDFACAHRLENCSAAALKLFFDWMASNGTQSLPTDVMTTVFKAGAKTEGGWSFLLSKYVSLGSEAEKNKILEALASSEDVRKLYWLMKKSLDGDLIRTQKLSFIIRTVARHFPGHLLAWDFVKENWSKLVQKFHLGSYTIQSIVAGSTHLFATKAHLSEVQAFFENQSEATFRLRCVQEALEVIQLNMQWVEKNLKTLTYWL

[2] = tested on: AIV angiotensinase; assay: Formation of 125I-AIV from 125I-AI; type: biochemical
[3] = target: T2, AT4 receptor (Cavia porcellus, UniProt H0VNM7); assay: Autoradiography of 125I-AIV binding in guinea pig brain; settings: 100 nM competitor, FIG. 3
T2 sequence (H0VNM7 1-1025): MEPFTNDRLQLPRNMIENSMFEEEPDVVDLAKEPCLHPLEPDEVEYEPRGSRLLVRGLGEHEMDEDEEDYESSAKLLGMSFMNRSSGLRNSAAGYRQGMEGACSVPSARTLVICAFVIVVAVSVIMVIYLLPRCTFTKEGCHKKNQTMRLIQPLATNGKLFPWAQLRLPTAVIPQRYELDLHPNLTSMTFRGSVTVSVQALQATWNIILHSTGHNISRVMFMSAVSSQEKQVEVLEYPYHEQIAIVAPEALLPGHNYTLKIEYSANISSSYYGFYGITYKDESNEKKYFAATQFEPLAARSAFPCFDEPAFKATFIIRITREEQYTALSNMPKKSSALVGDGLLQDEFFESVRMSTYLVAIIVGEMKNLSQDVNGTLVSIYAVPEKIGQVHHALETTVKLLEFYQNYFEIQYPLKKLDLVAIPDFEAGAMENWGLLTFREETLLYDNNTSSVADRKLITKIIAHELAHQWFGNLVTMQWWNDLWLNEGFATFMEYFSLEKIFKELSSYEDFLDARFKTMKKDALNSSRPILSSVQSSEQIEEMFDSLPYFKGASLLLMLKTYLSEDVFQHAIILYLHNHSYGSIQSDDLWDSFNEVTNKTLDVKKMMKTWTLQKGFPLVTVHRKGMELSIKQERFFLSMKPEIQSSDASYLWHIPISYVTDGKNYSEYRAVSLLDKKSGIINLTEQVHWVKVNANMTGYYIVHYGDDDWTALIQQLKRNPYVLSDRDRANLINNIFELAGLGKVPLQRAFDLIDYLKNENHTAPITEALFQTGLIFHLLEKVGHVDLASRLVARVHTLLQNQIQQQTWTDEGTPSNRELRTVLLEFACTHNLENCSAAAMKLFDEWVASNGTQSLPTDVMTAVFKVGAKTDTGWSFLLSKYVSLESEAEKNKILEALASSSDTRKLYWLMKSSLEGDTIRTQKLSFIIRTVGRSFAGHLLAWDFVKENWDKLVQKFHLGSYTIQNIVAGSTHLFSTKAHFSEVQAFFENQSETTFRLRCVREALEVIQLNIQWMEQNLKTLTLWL

Compound	Ki [1] [nM]	inhibition of 125I-AIV formation from 125I-AI [2]	inhibition of 125I-AIV binding by non-labeled competitor [3]
KYI	30	–	–
Asp1 Arg2 Val3 Tyr4 Ile5 His6 Pro7 Phe8 (DRVYIHPF) [AII]	> 1000	excellent and specific inhibitors	–
CC[C@H](C)[C@H](NC(=O)[C@H](Cc1ccc(O)cc1)NC[C@@H](N)CCCCN)C(=O)N[C@@H](Cc1c[nH]cn1)C(=O)N1CCC[C@H]1C(=O)N[C@@H](Cc1ccccc1)C(=O)O [Kal1 AIV] (H-[X2]IHPF-OH)	2.13	–	–
SRVYIHPI [Sar1, Ile8 -AII]	> 1000	–	not competitively inhibited
CC[C@H](C)[C@H](NC(=O)[C@H](Cc1ccc(O)cc1)NC(=O)[C@@H](NC(=O)[C@@H](N)CCCNC(=N)N)C(C)C)C(=O)N[C@@H](Cc1c[nH]cn1)C(=O)N1CCC[C@H]1C(=O)N[C@@H](Cc1ccccc1)C(=O)O [AIII, Arg1 Val2 Tyr3 Ile4 His5 Pro6 Phe7, reference compound]	22.8	excellent and specific inhibitors	–
VYIHP [des Phe6 -AIV]	74.5	–	–
V1 Y2 I3 H4 P5 F6 H7 L8 (VYIHPFHL) [AI(3-10)]	0.963	–	–
CGP 42112A	> 100000	–	–
NleYI [Nle-Y-I]	8.3	–	–
CC(C)[C@@H](CN[C@@H](Cc1c[nH]cn1)C(=O)N1CCC[C@H]1C(=O)N[C@@H](Cc1ccccc1)C(=O)O)NC(=O)[C@H](Cc1ccc(O)cc1)NC[C@@H](N)CCCCN [Kal1 Val3 AIV]	1.03	–	–

From patent US5854388A, “Angiotensin IV peptides and receptor” (Washington State University Research Foundation, priority 1994, dated 1998)
